Assay results taken from article PMC8431798.
pKd: −log10 of the molar value.

Target: fluorescently labeled rabbit skeletal actin (rabbit) (UniProt P68135)
Assay: MST; fluorescently labeled rabbit skeletal actin at constant concentration, troponin complex titrated in 16 capillaries; Monolith NT.115; fit to the Kd model; n = 4-7

pKd	Substance
5.71	human cardiac troponin complex with cTnC-G34S (cTn-G34S) (from UniProt P63316 1-161; P19429 1-210; P45379 1-298)
5.66	human cardiac troponin complex with cTnI-D127Y (cTn-D127Y) (from UniProt P63316 1-161; P19429 1-210; P45379 1-298)
5.70	human cardiac wild type troponin complex (cTn-WT) (from UniProt P63316 1-161; P19429 1-210; P45379 1-298)
